Earlier results as cited in patent publication US5280015A, “2-substituted adenosines and 2-substituted adenosine 5'-carboxamides” (priority 1990, dated 1994).

Sequences of proteins named here, by UniProt entry; tags and fusion partners are left off.
UniProt P30543, whole entry: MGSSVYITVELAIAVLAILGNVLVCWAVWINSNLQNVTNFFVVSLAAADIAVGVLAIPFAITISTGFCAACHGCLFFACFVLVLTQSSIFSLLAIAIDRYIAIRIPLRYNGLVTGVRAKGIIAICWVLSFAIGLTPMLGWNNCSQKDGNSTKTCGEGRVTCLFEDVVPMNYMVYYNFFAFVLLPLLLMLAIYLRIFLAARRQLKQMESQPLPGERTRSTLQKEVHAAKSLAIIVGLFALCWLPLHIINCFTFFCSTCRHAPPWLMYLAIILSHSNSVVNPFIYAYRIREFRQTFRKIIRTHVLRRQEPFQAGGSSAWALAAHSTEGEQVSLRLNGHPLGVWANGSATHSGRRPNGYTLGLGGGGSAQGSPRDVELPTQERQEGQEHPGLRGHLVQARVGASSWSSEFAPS

Molecular target: A2-adenosine receptors (Rattus norvegicus, UniProt P30543)
Conditions: read-out: Ki, inhibition of binding of [3H]NECA at A2 receptors; cited from earlier work

Compound: C[C@H](Cc1ccccc1)Nc1ncnc2c1ncn2[C@@H]1O[C@H](CO)[C@@H](O)[C@H]1O [R-PIA, N^6 -phenylisopropyladenosine, reference compound]
- Ki: 120 nM
